According to patent US9040533B2, “Oxime-substituted-quinoxaline-type piperidine compounds as ORL-1 modulators” (priority 2012, dated 2015):

Columns and labels:
[1] = target: T1, human opioid receptor-like (ORL-1) (Homo sapiens, UniProt P41146); assay: ORL-1 receptor [35S]GTPγS functional binding assay; type: biochemical; settings: for EC50: read-out: GTPγS ORL-1 EC50 [mean ± SEM]
human μ-opioid receptors = human μ-opioid receptors (Homo sapiens, UniProt P35372); assay: In vitro mu-opioid receptor binding assay ([3H]-diprenorphine displacement); settings: read-out: Mu opioid receptor Ki [Average ± Std Deviation]
kappa opioid receptor = kappa opioid receptor (Homo sapiens, UniProt P41145); assay: In vitro kappa-opioid receptor binding assay ([3H]-U69,593 displacement); settings: read-out: Kappa opioid receptor Ki [Average ± Std Deviation]
delta opioid receptor = delta opioid receptor (Homo sapiens, UniProt P41143); assay: In vitro delta-opioid receptor binding assay ([3H]-Naltrindole displacement); settings: read-out: Delta opioid receptor Ki [Average ± Std Deviation]
[2] = target: T1, human opioid receptor-like (ORL-1); assay: In vitro ORL-1 receptor binding assay ([3H]-nociceptin displacement); settings: read-out: ORL-1 Ki [Average ± Std Deviation]
human μ-receptors = human μ-receptors (Homo sapiens, UniProt P35372); assay: Mu-opioid receptor [35S]GTPγS functional assay

| Structure (SMILES) | GTPγS ORL-1 Emax [mean ± SEM] [1] [%] | EC50 [1] [nM] | Ki (human μ-opioid receptors) [nM] | Ki (kappa opioid receptor) [nM] | Ki (delta opioid receptor) [nM] | Ki [2] [nM] | GTPγS Mu Emax [mean ± SEM] (human μ-receptors) [%] |
| --- | --- | --- | --- | --- | --- | --- | --- |
| CC(C)O/N=C(\C(=O)O)c1nc2ccccc2n([C@H]2C[C@H]3CCC[C@@H](C2)N3C2CC3CCCCC(C3)C2)c1=O (stereo partly drawn) [Compound 33, 2-(4-((1R,3R)-9-(bicyclo[4.3.1]decan-8-yl)-9-azabicyclo[3.3.1]nonan-3-yl)-3-oxo-3,4-dihydroquinoxalin-2-yl)-2-(isopropoxyimino)acetic acid] | 63 ± 1 | 27.7 | 134 | 41.1 | 4270 | 2.18 | – |
| CCC1CC2CC(C1)CC(N1[C@@H]3CCC[C@H]1C[C@@H](n1c(=O)c(/C(CCC(=O)O)=N/OCCN(C)C)nc4ccccc41)C3)C2 (stereo partly shown) [Compound 34] | 49.3 ± 1.3 | 14.6 | 73.2 | 16 | 6740 | 6.83 | −1 |
| CC[C@@H]1C[C@H]2CC(N3[C@@H]4CCC[C@H]3CC(n3c(=O)c(/C(CCC(=O)O)=N/OCCCN(C)C)nc5ccccc53)C4)C[C@@H](C1)C2 (stereo partly shown) [Compound 35] | 53.67 ± 3.18 | 40 | 120 | 14.2 | 11000 | 10.8 | – |
| CCON=C(C(=O)O)c1nc2ccccc2n([C@H]2C[C@H]3CC[C@@H](C2)N3C2CC3CCCCC(C3)C2)c1=O (stereo partly shown) [Compound 36] | 60.33 ± 2.85 | 23.1 | 703 | 150 | 15800 | 2.2 | – |
| CC(C)ON=C(C(=O)O)c1nc2ccccc2n([C@H]2C[C@H]3CC[C@@H](C2)N3C2CC3CCCCC(C3)C2)c1=O (stereo partly drawn) [Compound 37, [4-((1S,3R,5R)-(1R,6S,8S)-8-bicyclo[4.3.1]dec-8-yl-8-aza-bicyclo[3.2.1]oct-3-yl)-3-oxo-3,4-dihydro-quinoxalin-2-yl]-isopropoxyimino-acetic acid] | 70.3 ± 6.2 | 19.9 | 1410 | 208 | > 20000 | 2.42 | – |
| NC(=O)CO/N=C(\CCC(=O)O)c1nc2ccccc2n([C@H]2C[C@H]3CCC[C@@H](C2)N3C2CC3CCCC(C3)C2)c1=O (stereo partly shown) [Compound 39] | 25.75 ± 2.29 | 25.3 | 1750 | 663 | > 20000 | 26.8 | – |
| CNC(=O)/C(=N\OCC(=O)O)c1nc2ccccc2n([C@H]2C[C@H]3CCC[C@@H](C2)N3C2CC3CCCC(C3)C2)c1=O (stereo partly shown) [Compound 43] | 26 ± 1 | 21.4 | 1470 | 290 | 18000 | 7.34 | – |
| COCCO/N=C(\C(=O)O)c1nc2ccccc2n([C@H]2C[C@H]3CCC[C@@H](C2)N3C2CC3CCCCC(C3)C2)c1=O (stereo partly shown) [Compound 46] | 76.67 ± 3.38 | 4.17 | 472 | 116 | 17600 | 0.36 | – |
| COCCO/N=C(\C(=O)O)c1nc2ccccc2n([C@H]2C[C@H]3CCC[C@@H](C2)N3C2CC3CCCC(C3)C2)c1=O (stereo partly shown) [Compound 49] | 69 ± 3.21 | 97 | 1710 | 891 | > 20000 | 1.29 | – |
| CON=C(C(=O)O)c1nc2ccccc2n([C@H]2C[C@H]3COC[C@@H](C2)N3C2CC3CCCCC(C3)C2)c1=O (stereo partly drawn) [Compound 50, [4-((1R,5S,7S)-(1S,6R,8R)-9-bicyclo[4.3.1]dec-8-yl-3-oxa-9-aza-bicyclo[3.3.1]non-7-yl)-3-oxo-3,4-dihydro-quinoxalin-2-yl]-methoxyimino-acetic acid] | 75.0 ± 9.5 | 16.9 | 18000 | > 20000 | > 20000 | 1.67 | – |
| CC(O/N=C(\C(=O)O)c1nc2ccccc2n([C@H]2C[C@H]3CCC[C@@H](C2)N3C2CC3CCCC(C3)C2)c1=O)C(N)=O (stereo partly shown) [Compound 52] | 30.67 ± 3.71 | 24.8 | 4290 | 216 | > 20000 | 1.32 | – |
| CC(C)C(O/N=C(\C(=O)O)c1nc2ccccc2n([C@H]2C[C@H]3CCC[C@@H](C2)N3C2CC3CCCC(C3)C2)c1=O)C(N)=O (stereo partly shown) [Compound 53] | 36 ± 7 | 61.1 | 1400 | 225 | 18900 | 1.97 | – |
| CNC(=O)CON=C(C(=O)O)c1nc2ccccc2n([C@H]2C[C@H]3CCC[C@@H](C2)N3C2CC3CCCC(C3)C2)c1=O (stereo partly shown) [Compound 64] | 43.33 ± 0.88 | 1.21 | 268 | 35.3 | 13900 | 0.5 | – |
